Here are results for five compounds from ChEMBL document CHEMBL1127015, “Centrally acting serotonergic and dopaminergic agents. 1. Synthesis and structure-activity relationships of 2,3,3a,4,5,9b-hexahydro-1H-benz[e]indole derivatives” (J Med Chem, 1993).

Amino acid sequences for entries named in this document (tags omitted).
UniProt P61169, whole entry: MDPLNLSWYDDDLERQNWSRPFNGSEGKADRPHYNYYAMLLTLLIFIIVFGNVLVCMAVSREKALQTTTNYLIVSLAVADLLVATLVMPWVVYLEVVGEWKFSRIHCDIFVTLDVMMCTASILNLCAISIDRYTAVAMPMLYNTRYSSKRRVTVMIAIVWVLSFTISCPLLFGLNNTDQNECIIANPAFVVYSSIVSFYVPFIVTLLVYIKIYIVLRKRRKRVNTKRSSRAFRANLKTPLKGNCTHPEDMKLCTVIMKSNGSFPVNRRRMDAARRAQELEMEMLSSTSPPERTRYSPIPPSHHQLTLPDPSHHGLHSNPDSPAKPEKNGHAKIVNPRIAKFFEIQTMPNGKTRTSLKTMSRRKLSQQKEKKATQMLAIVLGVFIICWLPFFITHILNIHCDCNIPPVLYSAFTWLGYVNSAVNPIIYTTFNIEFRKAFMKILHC
UniProt P08908, whole entry: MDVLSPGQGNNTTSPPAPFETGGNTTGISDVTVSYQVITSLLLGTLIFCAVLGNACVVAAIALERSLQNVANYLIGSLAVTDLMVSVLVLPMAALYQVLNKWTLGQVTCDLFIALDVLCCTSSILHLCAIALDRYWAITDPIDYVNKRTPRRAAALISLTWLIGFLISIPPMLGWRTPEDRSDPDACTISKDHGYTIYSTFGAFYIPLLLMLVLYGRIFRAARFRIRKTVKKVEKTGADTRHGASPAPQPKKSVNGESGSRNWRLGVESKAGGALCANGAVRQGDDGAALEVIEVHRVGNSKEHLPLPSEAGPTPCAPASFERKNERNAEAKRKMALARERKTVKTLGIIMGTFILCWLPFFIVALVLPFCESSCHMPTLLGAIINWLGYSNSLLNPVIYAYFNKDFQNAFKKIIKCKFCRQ

The target in experiment [1] is T1, D(2) dopamine receptor (Rattus norvegicus, UniProt P61169). The experiment can be described thus: Binding affinity against [3H]raclopride-labeled dopamine receptor D2 in rat striatum. It is filed as tissue-based.
In experiment [2] the target is 5-hydroxytryptamine receptor 1A (Homo sapiens, UniProt P08908).
For experiment [3], the target named is T1, D(2) dopamine receptor. Kind of experiment: Inhibitory concentration against [3H]raclopride-labeled dopamine receptor D2 in rat striatum. It is filed as tissue-based.
In experiment [4] the target is T1, D(2) dopamine receptor. Kind of experiment: Compound was evaluated for the binding affinity against [3H]U-86,170-labeled dopamine receptor D2 in rat striatum. It is filed as tissue-based.

The Ki is the equilibrium dissociation constant of an inhibitor or competing ligand from its target. The compound `C=CCN1CCC2c3c(cccc3OC)CC[C@H]21` (single isomer, unassigned; (-)) gave an inhibitory constant (Ki) in experiment [1] of 5.3 nM.

`COc1cccc2c1C1CCN(CCc3ccccc3)[C@@H]1CC2` (stereo partly specified) yielded a Ki in experiment [2] greater than 442 nM.

The compound `C=CCN1CCC2c3c(cccc3OC)CC[C@@H]21` (single isomer, unassigned; (+)) came in with an inhibitory constant (Ki) in experiment [1] of 270 nM.

As usually defined, the IC50 is the concentration needed to halve the response being measured. Low values mean greater potency, high ones weaker potency. Regarding `C=CCN1CC[C@H]2c3c(cccc3OC)CC[C@H]21` (racemic), in experiment [3], the IC50 is greater than 1000 nM. In experiment [4], the affinity, expressed as Ki, was 7 nM.

Take `C=CCN1CC[C@@H]2c3c(cccc3OC)CC[C@H]21` (racemic): the affinity in experiment [1] corresponds to a Ki of 13 nM.
